scFv variants of Ab-14 (heavy chain) against a SARS-CoV-2 spike peptide

Values reported by Engelhart et al. 2022, doi:10.1038/s41597-022-01779-4 (FLAb copy).

Target: peptide PDVDLGDISGINAS, taken from heptad repeat 2 (HR2) of SARS-CoV-2 spike.

Each scFv is VH, a 15-residue (Gly4Ser)3 linker, VL, as in the parent Ab-14, and differs from it in the CDRs of the heavy chain only.
VH: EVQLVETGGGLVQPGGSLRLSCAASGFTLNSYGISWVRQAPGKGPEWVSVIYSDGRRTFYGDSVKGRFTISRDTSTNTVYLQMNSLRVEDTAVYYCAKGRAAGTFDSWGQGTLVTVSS
VL: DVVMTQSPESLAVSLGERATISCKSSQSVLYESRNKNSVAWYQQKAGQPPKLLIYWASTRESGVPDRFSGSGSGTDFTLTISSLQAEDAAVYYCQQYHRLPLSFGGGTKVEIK

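Phage display of a naive human antibody library on the peptide gave the parent. AAYL49 was designed without a model: most single CDR substitutions and a random sample of double and triple ones. In AlphaSeq, yeast of one mating type display the scFv and yeast of the other type display the target. The frequency of each diploid, read from paired DNA barcodes, reflects how well the two displayed proteins bind. The ratio of observed to expected reads was calibrated, replicate by replicate, on BCL2-family standards whose Kd was known from biolayer interferometry. There are three technical replicates.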

The parent's heavy chain CDRs are GFTLNSYGIS, VIYSDGRRTFYGDSVK, GRAAGTFDS; each variant's own CDRs replace them letter for letter. Values are apparent Kd, the geometric mean of the replicates that gave a signal; lower means stronger binding. An entry "nd" has no value in the source: the pair was not observed among the diploids in any replicate. This suggests poor binding but is not conclusive. Parent in this assay: reference entry 4.4 nM, copy in this library 13 µM (one replicate of three). Nonspecific signal, from three strains lacking the peptide, appeared in 15% of pairings of library AAYL49, centred on 11 µM (5% of these signals below 680 nM); values are not corrected for it.

| Kd | detected | CDR-H1 | CDR-H2 | CDR-H3 |
|---|---|---|---|---|
| 18 µM | 1/3 | GFTLNSYGQS | VIYSDGRRTFYGCSVK | GRAAPTFDS |
| nd | 0/3 | GFTLNSYGIS | VIYSDGCRTFHEDSVK | GRAAGTFDS |
| 1.1 µM | 3/3 | GFTLNSYGPS | VIYSDGRRTFYGHSVK | GRAAGTFDL |
| 62 nM | 3/3 | GFTLNSFGIS | VIYSDGRRTFYGDSVK | SRAVGTFDS |
| 1.0 µM | 1/3 | GFTLNSYGVS | VIYSDGRRTFYNDSVK | GRGAGTFDS |
| nd | 0/3 | GFTLNSYFIS | VIESDGRRTFYGESVK | GRAAGTFDS |
| 8.2 µM | 3/3 | GFTLNSYGIS | VIYSDGRFTFIGDSVK | GRAAGTMDS |
| 26 µM | 1/3 | GFTLNSYGIS | VHYSDHGRTFYGDSVK | GRAAGTFDS |
| nd | 0/3 | GFTLNSYGIS | EIYSDGRRTFYGDSVM | GRPAGTFDS |
| nd | 0/3 | GFILNSYEIS | VIYSDNRRTFYGDSVK | GRAAGTFDS |
| 350 nM | 3/3 | GFTLNSYGIS | VIYSDGCRTFYGDSVK | GRAQGTFDS |
| 64 nM | 3/3 | GFTLGSYGIS | VIYSDGRRTFYGDSVN | GRAAGTFDS |
| 8.0 µM | 2/3 | GETLNSCGIS | VIYSDGRRTFYGTSVK | GRAAGTFDS |
| nd | 0/3 | GFTLNSYGIV | VICSDGRRTFYFDSVK | GRAAGTFDS |
| nd | 0/3 | GFGDNSYGAS | VIYSDGRRTFYGDSVK | GRAAGTFDS |
| nd | 0/3 | GFTLNSYGIE | VPYSDGRRTFYGLSVK | GRAAGTFDS |
| 5.9 µM | 1/3 | GFTLNSYGIS | VPYSDGRRMFYGDSVK | KRAAGTFDS |
| 40 µM | 2/3 | GFTLNSYGIF | PIYMDGRRTFYGDSVK | GRAAGTFDS |
| nd | 0/3 | GFTLNSYGIS | VIYLDGRRTFYGDSNK | GRAMGTFDS |
| 420 nM | 3/3 | QFALNSYGIS | VIYWDGRRTFYGDSVK | GRAAGTFDS |
| nd | 0/3 | GQTLNSSGIS | VIYSDGRRTFNGDSVK | GRAAGTFDS |
| 7.4 µM | 1/3 | GFTLNSYYIW | VIISDGRRTFYGDSVK | GRAAGTFDS |
| 21 µM | 2/3 | GFTLNHYRIS | VIYSDGRRTFYGDSVK | GRAIGTFDS |
| nd | 0/3 | GFTLNSYGIS | VIYSDGDDTFYGDSVK | GRAAGTFDS |
| nd | 0/3 | GFTLNSYGIS | VIYSDGRRTFYGDPVE | GRAACTFDS |
| nd | 0/3 | GFTLNSYGIP | VIYSDGRRTFYDDSVK | GRAAGTFDS |
| nd | 0/3 | GFTLNSYGIS | VITSDTRRTFYGDSVK | GRAAGTFDS |
| 100 µM | 1/3 | GFTLQSYGFS | VIYSDGRRTFEGDSVK | GRAAGTFDS |
| 46 µM | 2/3 | GFTLNSYMIS | VIYSDGRRTFYHDSVK | GRAAGWFDS |
| 5.9 nM | 3/3 | GFKLNSYGIS | VIYSDGRRTFYGDSVK | CRAAHTFDS |
| nd | 0/3 | GFTLTSYGIS | VIYSDGRRHFYGDSVK | GRYAGTFDS |
| 6.5 nM | 3/3 | GFTLNSYGIS | VIYSDGRRSFYGDSVK | GNAAGTFDS |
| 21 µM | 1/3 | GFTLISYGIS | RIYSDGRRTFYGDSVK | GRAAWTFDS |
| nd | 0/3 | GFTLNSPGIS | VIWSDGRRTFYGHSVK | GRAAGTFDS |
| 2.6 µM | 1/3 | GFTLNSYGIS | VIYSDGRRPFAGDSTK | GRAAGTFDS |
| 240 nM | 1/3 | YFTLNSYGIS | VIYSDGRRTFYGDSVK | GQAAGTFYS |
| 960 nM | 3/3 | GFTLNSYGIS | VIYSDGRRRCYGDSVK | GRAAGTFDS |
| nd | 0/3 | GQTLNSYGIS | TIYSDGRRTFYGDSVK | GRAALTFDS |
| nd | 0/3 | GFTLNSYGIS | VIYSDGRRTFYGDSAK | GRAAGTFEN |
| nd | 0/3 | GFTLNSYGIS | VIYSDCRRTFYGDSVK | GPAAGTFDS |
| nd | 0/3 | GFTCRSYGIS | VIYSDGRRTFYGDSVK | GHAAGTFDS |
| nd | 0/3 | GFTLNSYKIS | VIYSDGRRTFYGDSVK | GRAAGTFDV |
| 26 µM | 1/3 | EFTLNSYGIS | VIYSDGRATFYGDSVE | GRAAGTFDS |
| nd | 0/3 | GFTLNSYGIS | VIYSDQRRTFYGDFVF | GRAAGTFDS |
| 6.3 nM | 3/3 | GFTLTSYGIS | VIYSDGRRTFYSDSVK | GRAAVTFDS |
| 43 nM | 3/3 | GFTLNSYGIS | VIYSDGRRTFYGDSSK | GRNAGTFDS |
| nd | 0/3 | GFTLNSYLIS | VIYSDGRRTFYGDDVK | GRAAWTFDS |
| nd | 0/3 | GETLNSYGIS | VIYSDGRRTFSGDSVQ | GRAAGTFDS |
| nd | 0/3 | GFTLNTYGIS | VIYSDGRRTFYGDVVK | GRKAGTFDS |
| 18 µM | 1/3 | GFHLDSYGIS | VIYSDGRRTFYGDSQK | GRAAGTFDS |
| 91 µM | 2/3 | GFTHNSYGIS | PQYSDGRRTFYGDSVK | GRAAGTFDS |
| 23 nM | 3/3 | GFTLNSYGIS | VIYSDGRRTHYGDSVK | GRAQLTFDS |
| nd | 0/3 | GFTLNSYGID | VIYSDGRRTFPGDSVK | GREAGTFDS |
| 1.8 µM | 3/3 | GFTLNSYGIS | VIYSDGRRTFYGYSVW | GRHAGTFDS |
| 12 µM | 2/3 | FFTLNSYGIP | VIYSDGRRTFYGDDVK | GRAAGTFDS |
| nd | 0/3 | GFTHNSYGIS | VIYSDGRRKFCGDSVK | GRAAGTFDS |
| 8.9 µM | 2/3 | GFTLNSYGPS | VIYSDGRRTFYGDSTN | GRAAGTFDS |
| 14 nM | 3/3 | GFTLNMYGIS | VIYSDGRRDFYIDSVK | GRAAGTFDS |
| 3.6 nM | 3/3 | GFNLNSYGIS | VIYSDGHRTFYGDSVK | GRGAGTFDS |
| nd | 0/3 | GFTLNKYGLS | VIYVDGRRTFYGDSVK | GRAAGTFDS |
| nd | 0/3 | LFTFNSYGIS | VIYSDGRRTFYGDSEK | GRAAGTFDS |
| nd | 0/3 | GFTLISYGIM | VIYSDGRRTFYGISVK | GRAAGTFDS |
| nd | 0/3 | GFTDQSYGIS | VIYSDGRRTFYGDSVK | GREAGTFDS |
| nd | 0/3 | TFTLYSYGDS | VIYSDGRRTFYGDSVK | GRAAGTFDS |
| nd | 0/3 | GFTLNSYGGS | VIYSDGRRTFYGDSVK | GNAACTFDS |

Repeated from above, the 6 best binders with a signal in all replicates:

{"CDR-H1": "GFNLNSYGIS", "CDR-H2": "VIYSDGHRTFYGDSVK", "CDR-H3": "GRGAGTFDS", "Kd": "3.6 nM", "detected": "3/3"}
{"CDR-H1": "GFKLNSYGIS", "CDR-H2": "VIYSDGRRTFYGDSVK", "CDR-H3": "CRAAHTFDS", "Kd": "5.9 nM", "detected": "3/3"}
{"CDR-H1": "GFTLTSYGIS", "CDR-H2": "VIYSDGRRTFYSDSVK", "CDR-H3": "GRAAVTFDS", "Kd": "6.3 nM", "detected": "3/3"}
{"CDR-H1": "GFTLNSYGIS", "CDR-H2": "VIYSDGRRSFYGDSVK", "CDR-H3": "GNAAGTFDS", "Kd": "6.5 nM", "detected": "3/3"}
{"CDR-H1": "GFTLNMYGIS", "CDR-H2": "VIYSDGRRDFYIDSVK", "CDR-H3": "GRAAGTFDS", "Kd": "14 nM", "detected": "3/3"}
{"CDR-H1": "GFTLNSYGIS", "CDR-H2": "VIYSDGRRTHYGDSVK", "CDR-H3": "GRAQLTFDS", "Kd": "23 nM", "detected": "3/3"}